Assay results as given in ChEMBL document CHEMBL4257582, “Discovery and Lead Optimization of Atropisomer D1 Agonists with Reduced Desensitization” (J Med Chem, 2018).

Chains of the proteins cited; added tags and fusions are not shown.
UniProt P21728, whole entry: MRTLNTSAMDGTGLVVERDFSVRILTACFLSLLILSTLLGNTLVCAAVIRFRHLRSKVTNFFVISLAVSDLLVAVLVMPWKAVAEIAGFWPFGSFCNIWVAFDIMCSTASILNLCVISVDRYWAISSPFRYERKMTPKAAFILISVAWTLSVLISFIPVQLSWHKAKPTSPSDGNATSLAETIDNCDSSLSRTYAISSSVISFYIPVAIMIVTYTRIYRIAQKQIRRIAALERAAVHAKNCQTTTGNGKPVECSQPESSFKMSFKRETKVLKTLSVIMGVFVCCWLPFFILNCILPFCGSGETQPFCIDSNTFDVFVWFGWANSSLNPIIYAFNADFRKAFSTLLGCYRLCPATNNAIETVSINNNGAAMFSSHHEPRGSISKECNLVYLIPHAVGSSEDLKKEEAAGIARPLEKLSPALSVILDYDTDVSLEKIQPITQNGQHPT

Molecular target: D(1A) dopamine receptor (Homo sapiens, UniProt P21728)
Assay: Intrinsic agonist activity at human dopamine D1 receptor expressed in HEK293T cells assessed as induction of cAMP levels at […] after 30 mins by HTRF assay relative to dopamine
Type: functional, cell-based
Outline: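 HEK293 cells overexpressing hD1R, no exogenous dopamine. cAMP response converted to nM cAMP with a standard curve, then normalized to the dopamine control. Geometric mean, N ≥ 3 unless otherwise specified.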

Emax: 18%
SMILES: Cc1cc(Oc2nccc3occc23)ccc1-c1c(C)cnn1C(C)(C)C
